Data on two molecules can be found in paper PMC11926245 (Nature Communications, 2025).

The Kd is the free concentration of one partner at which half of the binding sites on the other are occupied at equilibrium, for simple one-to-one binding. High values mean a looser complex, low ones a tighter complex. By stoichiometry N is commonly meant a count of units in the complex or per binding partner.

B1: Tyrosine hydroxylase, wild-type (hTH1) (enzyme)
chain: not shown
modifications: biotinylated with EZ-Link NHS-PEG4-Biotin for BLI only

Data set [1] addresses T1, DNAJC12, full-length wild-type (isoform a) (human, UniProt Q9UKB3-1 1-198).
T1 construct: Monomer by SEC-MALS; Cloned into pETMBP1a after the TEV site; also called DNAJC12 WT; source: E. coli BL21-CodonPlus(DE3)-RIL, purified (HisTrap, TEV cleavage, TALON, amylose, SEC); not shown: His6, N-terminal, cleaved; MBP, N-terminal, cleaved
The experiment in a line: BLI; biotinylated TH or TH variant immobilised on streptavidin sensors; DNAJC12 or variant 0.01-4 μM in solution; PBS, 0.02% Tween-20, 0.5 mg/mL BSA, 25 °C; responses fitted to a one-site hyperbola. Conditions: both partners purified. (In general: BLI is a label-free optical method that tracks binding on a fibre tip over time.)

Data set [2] has as its target DNAJC12(1-190) (human, UniProt Q9UKB3-1 1-190). The description is as above. Conditions: both partners purified.
Data set [3] addresses T1, DNAJC12, full-length wild-type (isoform …). The data set is described as follows: BLI; as the BLI without dopamine, but TH with dopamine (DA). To be noted: both partners purified.
Data set [4] concerns the molecule itself. The data set is described as follows: SEC-MALS; Superdex 200 Increase, 20 mM Na-Hepes pH 7.0, 200 mM NaCl; DNAJC12 3 mg/mL, TH, TH:DNAJC12 complex, TH(1-158) and TH(155-497) 2 mg/mL.
The target of data set [5] is B1. The experiment in a line: BLI; biotinylated TH or TH variant immobilised on streptavidin sensors; DNAJC12 or variant 0.01-4 μM in solution; PBS, 0.02% Tween-20, 0.5 mg/mL BSA, 25 °C; responses fitted to a one-site hyperbola. To be noted: both partners purified.

B1: the Kd in data set [1] came out at 148 nM; in data set [2] it was 1670 nM; in data set [3], 147 nM. In addition, the “stoichiometry N” value in data set [4] is 4.

B2: DNAJC12(108-198) (domain or fragment, human, UniProt Q9UKB3-1 108-198, looked up)
chain: KKDLMLEESDKTHTTKMENEECNEQRERKKEELASTAEKTEQKEPKPLEKSVSPQNSDSSGFADVNGWHLRFRWSKDAPSELLRKFRNYEI
For the molecule B2, in data set [5], binding was characterised by a dissociation constant (Kd) of 42 nM.
